Here are results for 1 compound from US20050119190A1, “Inhibitors of the blood-clotting factor xa, production thereof and use of the same” (priority 2002, published 2005).

By UniProt entry, the sequences of proteins in these tests, tags left out. Residues count along the entry.
UniProt P00743, 234-492 limits assumed: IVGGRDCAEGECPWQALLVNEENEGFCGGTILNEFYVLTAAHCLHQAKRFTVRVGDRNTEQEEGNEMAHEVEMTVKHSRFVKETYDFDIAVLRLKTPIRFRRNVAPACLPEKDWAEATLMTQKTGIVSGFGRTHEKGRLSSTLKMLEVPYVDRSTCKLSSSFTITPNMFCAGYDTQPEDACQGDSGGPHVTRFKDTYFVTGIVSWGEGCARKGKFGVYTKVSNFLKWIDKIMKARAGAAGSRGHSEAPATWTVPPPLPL
UniProt P00743, 41-180 partner limits assumed: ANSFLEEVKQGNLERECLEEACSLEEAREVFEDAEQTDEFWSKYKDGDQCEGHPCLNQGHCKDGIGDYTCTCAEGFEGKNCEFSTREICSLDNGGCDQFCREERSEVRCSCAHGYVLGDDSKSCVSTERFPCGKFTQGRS

For orientation: Ki means a measure of affinity in units of concentration, obtained from inhibition or displacement. A low value points to higher affinity.

The structures appear in SMILES notation.

This assay concerns the target F Xa (bovine) (Bos taurus, UniProt P00743). Put plainly: Inhibition of F Xa, Ki by the method of Dixon, chromogenic substrate Moc-D-Nle-Gly-Arg-pNA. The conditions noted are these: Example 4; inhibition of factor Xa by inhibitors of formula I; tested form: 2 TFA.

Regarding `CC(C)(C)OC[C@@H](NS(=O)(=O)Cc1ccc(CN)cc1)C(=O)NCC(=O)NCc1ccc(C(=N)N)cc1`, the Ki was 350 nM.
